Among the data in PubChem BioAssay (NCI) are growth inhibition values, retold here.

This is a selection; strong and weak results do not stand in their true shares. Some structures have more than one record in an assay (separate samples or runs), and their calls can disagree. Active and inactive are the calls of the source. Rule as the data show it: active = growth inhibition above about 70%; inactive = the rest.

The experiment can be described thus: NCI Yeast Anticancer Drug Screen. Data for the wt2 strain (AID 169).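 Also: 0% = growth of vehicle-treated yeast cultures.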 The following applies: S. cerevisiae wt2 strain growth inhibition, stronger effect = higher value. As for the experimental part:
Growth inhibition of yeast strains with defined genetic alterations is measured as a screen for potential anti-cancer activity. Selected strains with alterations in DNA damage repair or cell cycle control were exposed to compounds and growth inhibition was measured relative to vehicle treated controls. The strain used in this assay is wt2

Consider `FC1(F)SC2C(C1(F)F)C1(Cl)C(Cl)=C(Cl)C2(Cl)C1(Cl)Cl` (stereo not given), for which the growth inhibition is, setting by setting: (at 1.2 µM) inactive: 22%; (at 3.7 µM) active: 98%; (at 11.0 µM) active: 99%; (at 33.0 µM) active: 99%; (at 100.0 µM) active: 99%.

Turning to `N#Cc1cc([N+](=O)[O-])cc([N+](=O)[O-])c1N`, the growth inhibition reads like this: (at 1.2 µM) inactive: 8%; (at 3.7 µM) inactive: 15%; (at 11.0 µM) inactive: 23%; (at 33.0 µM) inactive: 39%; (at 100.0 µM) inactive: 58%.

Consider `CC(C)c1nc(Nc2ccccc2)n(P(=O)(N(C)C)N(C)C)n1`, for which the growth inhibition by setting is: (at 1.2 µM) inactive: -26%; (at 3.7 µM) inactive: -12%; (at 11.0 µM) inactive: -5%; (at 33.0 µM) inactive: 32%; (at 100.0 µM) active: 93%.

Take `O=[N+]([O-])c1cc([N+](=O)[O-])c2nsnc2c1`: the growth inhibition runs as follows: (at 1.2 µM) inactive: 13%; (at 3.7 µM) inactive: 54%; (at 11.0 µM) active: 100%; (at 33.0 µM) active: 100%; (at 100.0 µM) active: 100%.

For the molecule `CN(C)P(=O)(N(C)C)n1c(Nc2ccccc2)nnc1-c1ccccc1`, the growth inhibition was inactive: -41% (at 1.2 µM); inactive: -11% (at 3.7 µM); inactive: -46% (at 11.0 µM); active: 96% (at 33.0 µM); active: 94% (at 100.0 µM).

`NC(Cc1cnc[nH]1)C(=O)O` (stereo not given): the growth inhibition is inactive: -13% (at 1.2 µM); inactive: 52% (at 3.7 µM); active: 98% (at 11.0 µM); active: 99% (at 33.0 µM); active: 99% (at 100.0 µM).

Turning to `COc1cccc(C[N+](C)(CCCl)CCCl)c1[N+](=O)[O-]`, the growth inhibition runs as follows: (at 1.2 µM) inactive: 13%; (at 3.7 µM) inactive: 15%; (at 11.0 µM) inactive: 17%; (at 33.0 µM) inactive: 19%; (at 100.0 µM) inactive: 39%.

As to `O=C1OC(C(Cl)(Cl)Cl)Sc2ccccc21` (stereo not given), the growth inhibition is inactive: -2% (at 1.2 µM); inactive: -2% (at 3.7 µM); inactive: 1% (at 11.0 µM); inactive: 27% (at 33.0 µM); active: 75% (at 100.0 µM).
